From US20050148631A1, “Amino heterocyclyl inhibitors of 11-beta-hydroxy steroid dehydrogenase type 1” (AGOURON PHARMACEUTICALS, INC., priority 2003, published 2005)

The chains behind the UniProt entries cited, without tags or fusion partners.
UniProt P28845, whole entry, species assumed: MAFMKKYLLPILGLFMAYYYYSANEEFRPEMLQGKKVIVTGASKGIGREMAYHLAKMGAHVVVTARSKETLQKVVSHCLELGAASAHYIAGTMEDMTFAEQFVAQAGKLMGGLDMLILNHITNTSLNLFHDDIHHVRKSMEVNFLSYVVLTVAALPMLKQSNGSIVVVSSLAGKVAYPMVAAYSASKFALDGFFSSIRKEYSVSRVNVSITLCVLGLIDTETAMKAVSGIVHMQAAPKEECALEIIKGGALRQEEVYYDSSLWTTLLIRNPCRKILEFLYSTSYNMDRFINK

Biological target: 11β-hsd-1 enzyme (Homo sapiens, UniProt P28845)
Experiment: 11β-hsd-1 enzyme assay, percentage of inhibition (3H-cortisone to cortisol, radio-HPLC)
Type: biochemical
Details: read-out: % inh @ 0.1 uM

`N#Cc1ccc(-c2ccc(S(=O)(=O)Nc3cccc(N)n3)cc2)cc1` [Example 61] was tested, and the inhibition at 0.1 µM was 98.6%.
